The data set deals with diMeK4H3 (1-21 aa) synthetic histone H3 peptide (UP12-460).

In the case of “histidine epitope-tagged LSD1 (HIS-LSD1), full length (1-851aa) human LSD1”, the “apparent Km (demethylation-FDH coupled spectrophotometric assay, Lineweaver-Burk)” value is on record as “approximately 30 µM”.

For the origin of these results see patent US20130210888.
